Article PMC7531517 (mAbs, 2020)

Target: vascular endothelial growth factor (Homo sapiens (assumed), UniProt P15692-4)
Test: SPR

Kd [nM] | koff [s⁻¹] | kon [M⁻¹ s⁻¹] | Binder
1.11 | 0.000405 | 3.66e-05 | mAb2 (wild type therapeutic monoclonal antibody against VEGF) (antibody, V domains shown) VH: EVQLVESGGGLVQPGGSLRLSCAASGFTISDYWIHWVRQAPGKGLEWVAGITPAGGYTYYADSVKGRFTISADTSKNTAYLQMNSLRAEDTAVYYCARFVFFLPYAMDYWGQGTLVTVSS VL: DIQMTQSPSSLSASVGDRVTITCRASQDVSTAVAWYQQKPGKAPKLLIYSASFLYSGVPSRFSGSGSGTDFTLTISSLQPEDFATYYCQQSYTTPPTFGQGTKVEIK
1.24 | 0.000375 | 3.03e-05 | in silico optimized variant of mAb2 (SL52R) (antibody, V domains shown) VH: EVQLVESGGGLVQPGGSLRLSCAASGFTISDYWIHWVRQAPGKGLEWVAGITPAGGYTYYADSVKGRFTISADTSKNTAYLQMNSLRAEDTAVYYCARFVFFLPYAMDYWGQGTLVTVSS VL: DIQMTQSPSSLSASVGDRVTITCRASQDVSTAVAWYQQKPGKAPKLLIYSARFLYSGVPSRFSGSGSGTDFTLTISSLQPEDFATYYCQQSYTTPPTFGQGTKVEIK
